The source of these data is patent US20060079453A1, “Hla binding peptides and their uses” (priority 2002, published 2006).

Read-outs that look alike come from different tables or passages of the source.

Targets include HLA-B*4002 (Homo sapiens, UniProt P01889, A65T/A93T/A95T/D138N/D201E/D98Y/E176V/E204Q/E69K/K202T/N87E/Q56L/Q94N/R180L/S48T/Y33H/Y91S); HLA-B*1801 (Homo sapiens, UniProt P01889, A329T/A93T/A95T/C349S/D201E/D54G/D98Y/E176V/E187T/E204Q/E69T/K202T/Q94N/R155S/R180L/S121R/V306I/Y140S/Y195H/Y33H/Y91S); HLA-B*4501 (Homo sapiens, UniProt P01889, A329T/A65T/A93T/A95T/C349S/D138N/D201E/D98Y/E176V/E187L/E204Q/E69K/H137Y/K202T/L119W/N87E/Q56L/Q94N/R155S/R180D/S121R/S35A/S48T/V127L/V306I/V36M/W191S/Y140L/Y33H/Y91S); HLA-B*4001 (Homo sapiens, UniProt P01889, A65T/A93T/A95T/D138N/D98Y/E176V/E69K/N87E/Q56L/Q94N/R180L/S121R/S35A/S48T/T167S/V36M/W171L/Y33H/Y91S).

Common to all, as to experiment: biochemical
Holding throughout (assay type): binding

The next assay addresses HLA-B*4402 (Homo sapiens, UniProt P01889, A223V/A65T/A93T/A95T/D201E/D98Y/E176V/E187L/E204Q/E69K/G107R/H137Y/K202T/L105A/L119I/N104T/N87E/Q56L/Q94N/R106L/R155S/R180D/S101N/S121R/S35A/S48T/T118I/V36M/W191S/Y140D/Y91S). Particulars: B*4402.

Consider `CC[C@H](C)[C@H](NC(=O)[C@H](Cc1ccccc1)NC(=O)[C@@H]1CCCN1C(=O)[C@H](CCCCN)NC(=O)[C@@H]1CCCN1C(=O)[C@@H]1CCCN1C(=O)[C@H](CCC(=O)O)NC(=O)[C@H](C)N)C(=O)N[C@H](C(=O)O)[C@@H](C)O`, for which the IC50 is more than 34.6 µM on HLA-B*4402, 7.17 µM on HLA-B*4002 (B*4002) and 12.8 µM at HLA-B*1801 (B*1801).

Take `CC[C@H](C)[C@H](NC(=O)[C@H](CCC(=O)O)NC(=O)[C@@H]1CCCN1C(=O)[C@H](CCC(=O)O)NC(=O)[C@@H](N)CS)C(=O)N[C@@H](CCC(N)=O)C(=O)N[C@@H](CC(N)=O)C(=O)N[C@H](C(=O)N[C@H](C(=O)O)[C@@H](C)O)[C@@H](C)O`: the IC50 against HLA-B*4501 (B*4501) came to 2.73 µM; against HLA-B*4402, 31.8 µM; against HLA-B*4001 (B*4001), 5.71 µM; against HLA-B*1801 (B*1801) it was 6.89 µM.

Consider `CC[C@H](C)[C@H](NC(=O)[C@H](CCC(=O)O)NC(=O)[C@@H]1CCCN1C(=O)[C@H](CCC(=O)O)NC(=O)[C@@H](N)CS)C(=O)N[C@@H](CCC(N)=O)C(=O)N[C@@H](CC(N)=O)C(=O)N[C@H](C(=O)N[C@H](C(=O)N[C@@H](Cc1ccc(O)cc1)C(=O)O)[C@@H](C)O)[C@@H](C)O`, for which the IC50 on HLA-B*4501 (B*4501) is 43.7 µM; on HLA-B*4001 (B*4001) it was more than 10.3 µM; at HLA-B*4002 (B*4002) it was 35.7 µM.

Turning to `CC[C@H](C)[C@H](NC(=O)[C@H](CCCCN)NC(=O)[C@H](CCC(=O)O)NC(=O)[C@@H](N)CCC(=O)O)C(=O)N[C@@H](Cc1c[nH]c2ccccc12)C(=O)N[C@@H](CCC(=O)O)C(=O)N[C@@H](CCC(=O)O)C(=O)N[C@@H](CC(C)C)C(=O)N[C@@H](CO)C(=O)N[C@H](C(=O)O)C(C)C`, on HLA-B*1801 (B*1801), the IC50 is 0.073 µM.

On to `CC(C)C[C@H](NC(=O)[C@H](Cc1ccc(O)cc1)NC(=O)[C@H](CCC(=O)O)NC(=O)[C@@H](N)CCC(=O)O)C(=O)N[C@H](C(=O)N1CCC[C@H]1C(=O)N[C@@H](CCC(N)=O)C(=O)N[C@@H](CCC(N)=O)C(=O)NCC(=O)N[C@@H](Cc1ccccc1)C(=O)O)C(C)C`, for which the figures for the IC50 at HLA-B*4402, at HLA-B*4001 (B*4001) and against HLA-B*1801 (B*1801) were 0.0069 µM, 26.6 µM and 0.0021 µM, respectively.

As for `CC[C@H](C)[C@H](NC(=O)[C@H](CO)NC(=O)[C@H](CC(=O)O)NC(=O)[C@H](CCC(=O)O)NC(=O)[C@H](CCCNC(=N)N)NC(=O)CNC(=O)[C@H](CCC(=O)O)NC(=O)[C@@H](N)Cc1ccccc1)C(=O)O`, the IC50 at HLA-B*4402 was determined as 7.71 µM; on HLA-B*1801 (B*1801), 0.927 µM.

For the molecule `CC[C@H](C)[C@H](NC(=O)[C@H](CCC(=O)O)NC(=O)[C@H](CCC(=O)O)NC(=O)[C@H](CC(C)C)NC(=O)[C@@H](NC(=O)[C@H](CCC(=O)O)NC(=O)[C@@H](N)Cc1ccccc1)[C@@H](C)O)C(=O)N[C@H](C(=O)NCC(=O)N[C@@H](Cc1ccc(O)cc1)C(=O)O)[C@@H](C)O`, the IC50 at HLA-B*4501 (B*4501) was more than 28.5 µM; against HLA-B*4001 (B*4001), 53.4 µM; on HLA-B*4002 (B*4002), 36.3 µM.

On HLA-B*1801 (B*1801), `CC(C)[C@H](NC(=O)[C@H](CO)NC(=O)CNC(=O)[C@H](Cc1ccc(O)cc1)NC(=O)CNC(=O)CNC(=O)[C@H](Cc1ccccc1)NC(=O)[C@H](CCC(=O)O)NC(=O)CN)C(=O)O` returned an IC50 of 0.307 µM.

Take `CC[C@H](C)[C@H](NC(=O)[C@H](Cc1c[nH]cn1)NC(=O)[C@@H]1CCCN1C(=O)[C@H](CCC(=O)O)NC(=O)CN)C(=O)N[C@@H](CO)C(=O)N[C@@H](Cc1ccc(O)cc1)C(=O)N1CCC[C@H]1C(=O)N1CCC[C@H]1C(=O)N[C@@H](CC(C)C)C(=O)O`: at HLA-B*1801 (B*1801), the IC50 turned out to be 2.61 µM.

On to `CC(C)C[C@H](NC(=O)[C@H](CO)NC(=O)[C@H](CCC(N)=O)NC(=O)[C@H](CS)NC(=O)[C@H](CC(=O)O)NC(=O)[C@H](CCC(=O)O)NC(=O)[C@H](CO)NC(=O)[C@H](CO)NC(=O)[C@H](CCC(=O)O)NC(=O)CN)C(=O)O`, for which, on HLA-B*1801 (B*1801), the IC50 was found to be 139 µM.

On to `CC(C)C[C@H](NC(=O)[C@H](CCC(=O)O)NC(=O)[C@@H](N)CC(C)C)C(=O)N[C@@H](CCCCN)C(=O)N[C@@H](CC(=O)O)C(=O)N[C@@H](C)C(=O)N[C@@H](CCC(N)=O)C(=O)N[C@@H](C)C(=O)NCC(=O)O`, for which the IC50 on HLA-B*4402 is 17.3 µM; at HLA-B*1801 (B*1801), 0.451 µM.

For `CC(C)[C@H](NC(=O)[C@H](CO)NC(=O)CNC(=O)[C@H](CC(N)=O)NC(=O)[C@H](CCC(N)=O)NC(=O)[C@@H]1CCCN1C(=O)[C@H](CCC(N)=O)NC(=O)[C@H](CS)NC(=O)[C@H](CCC(=O)O)NC(=O)[C@@H]1CCCN1)C(=O)O`, the results for the IC50 against HLA-B*4501 (B*4501), against HLA-B*4001 (B*4001) and on HLA-B*4002 (B*4002) were more than 28.5 µM, 36 µM and 20.4 µM, respectively.

For `CC(C)[C@H](NC(=O)[C@H](CS)NC(=O)[C@H](CO)NC(=O)[C@H](C)NC(=O)CNC(=O)[C@H](Cc1ccccc1)NC(=O)[C@@H](NC(=O)[C@H](Cc1ccc(O)cc1)NC(=O)[C@H](CCCNC(=N)N)NC(=O)CNC(=O)[C@H](CCC(=O)O)NC(=O)[C@@H]1CCCN1)[C@@H](C)O)C(=O)O`, the IC50 at HLA-B*4402 is 0.778 µM; against HLA-B*4001 (B*4001), 0.0029 µM; against HLA-B*4002 (B*4002), 0.0044 µM; on HLA-B*1801 (B*1801), 4.07 µM.

For the molecule `CC(C)[C@H](NC(=O)[C@H](CS)NC(=O)[C@H](CO)NC(=O)[C@H](C)NC(=O)CNC(=O)[C@H](Cc1ccccc1)NC(=O)[C@@H](NC(=O)[C@H](Cc1ccc(O)cc1)NC(=O)[C@H](CCCNC(=N)N)NC(=O)CNC(=O)[C@H](CCC(=O)O)NC(=O)[C@@H]1CCCN1)[C@@H](C)O)C(=O)N[C@H](C(=O)O)[C@@H](C)O`, the IC50 on HLA-B*4501 (B*4501) stood at 0.673 µM; against HLA-B*4402 it was 1.42 µM; against HLA-B*4002 (B*4002), 0.737 µM; against HLA-B*1801 (B*1801), 5.23 µM.

As for `CC[C@H](C)[C@H](NC(=O)[C@H](CCC(=O)O)NC(=O)[C@@H](N)CCCNC(=N)N)C(=O)N[C@H](C(=O)N[C@@H](Cc1ccc(O)cc1)C(=O)N1CCC[C@H]1C(=O)N[C@@H](CC(N)=O)C(=O)N[C@@H](C)C(=O)N[C@@H](CO)C(=O)N[C@@H](CC(C)C)C(=O)O)[C@@H](C)CC`, the IC50 against HLA-B*4001 (B*4001) amounted to 0.0023 µM; at HLA-B*1801 (B*1801), 0.741 µM.

In turn, `CC[C@H](C)[C@H](NC(=O)CNC(=O)[C@H](Cc1ccccc1)NC(=O)[C@@H](NC(=O)[C@H](CC(C)C)NC(=O)[C@H](CCC(N)=O)NC(=O)[C@H](CC(C)C)NC(=O)[C@H](Cc1ccc(O)cc1)NC(=O)[C@H](CCC(=O)O)NC(=O)[C@@H](N)CO)C(C)C)C(=O)O` yielded an IC50 at HLA-B*1801 (B*1801) of 0.0022 µM.

Turning to `CC(C)C[C@H](NC(=O)[C@H](CCC(=O)O)NC(=O)[C@@H](N)[C@@H](C)O)C(=O)N[C@H](C(=O)N[C@@H](CCC(=O)O)C(=O)N1CCC[C@H]1C(=O)N[C@@H](CC(C)C)C(=O)N[C@H](C(=O)N1CCC[C@H]1C(=O)N[C@@H](CO)C(=O)NCC(=O)N[C@@H](C)C(=O)O)[C@@H](C)O)C(C)C`, the IC50 against HLA-B*4002 (B*4002) amounted to 0.059 µM; on HLA-B*1801 (B*1801), 0.236 µM.

Molecule `CSCC[C@H](NC(=O)[C@H](CO)NC(=O)[C@H](CC(C)C)NC(=O)[C@H](CCC(=O)O)NC(=O)[C@H](CCC(=O)O)NC(=O)[C@@H](N)Cc1c[nH]c2ccccc12)C(=O)N[C@@H](CC(C)C)C(=O)N[C@@H](CCC(=O)O)C(=O)N[C@H](C(=O)N[C@@H](Cc1ccccc1)C(=O)O)C(C)C` had an IC50 against HLA-B*1801 (B*1801) of 0.00014 µM.

With CEKCSKPCARV, at HLA-B*1801 (read-out: B*1801), the IC50 stood at 1.17 µM.

For FEGRLEDSVFA, the figures for the IC50 on HLA-B*4001 (read-out: B*4001) and at HLA-B*1801 (read-out: B*1801) were more than 10.1 µM and 0.178 µM, respectively.

PECQPQNGSVTGF: the IC50 on HLA-B*4501 (read-out: B*4501) was more than 22.4 µM; at HLA-B*4002 (read-out: B*4002), 5.34 µM; on HLA-B*1801 (read-out: B*1801), 6.29 µM.

Consider SEDGQSLTRT, for which the IC50 was determined as 4.73 µM on HLA-B*4501 (read-out: B*4501) and 0.335 µM at HLA-B*1801 (read-out: B*1801).
